Measurements published in article PMC4403811, “Efficient Cargo Delivery into Adult Brain Tissue Using Short Cell-Penetrating Peptides” (PLoS ONE, 2015).

Legend:
[1] = system: adult zebrafish brain (telencephalic hemisphere); experiment: Peptide translocation area in the telencephalon after CVMI (fluorescein IHC); settings: 5(6)-carboxyfluorescein-labelled peptide, fluorescein IHC at 1 dpi, n = 3, mean ± s.e.m.
Description: (§1) Cerebroventricular microinjections (CVMI) were executed as described in [7, 8]. Fish were anesthetized using MESAB (0.01%) and an incision placed above the optic tectum with a fine needle (Becton Dickinson Biosciences). Through this hole a glass capillary is inserted and the liquid disperses evenly throughout the cerebroventricular fluid upon high pressure injection.
(§2) Fish were sacrificed 1 day post injection and heads fixed over night at 4°C in 2% PFA. Thereafter heads were transferred to 20% Sucrose-EDTA in […] phosphate buffer, pH 7.5. For cryosectioning embedding in Sucrose(20%)-Gelatine (7.5%) on dry ice was done and heads stored at -80°C. 12 μm cryosections were cut using a cryostat microtome and stored at -20°C.
Stainings were performed as previously described in [36, 43]. Yet after the first washing step a 6 min citrate buffer treatment at 85°C was done. Primary antibodies were sheep anti-fluorescein AP (1:4000, Roche), mouse anti-PCNA (1:500, Dako Cyto) and rabbit anti L-Plastin (Lcp1, 1:7500, a kind gift from Michael Redd, University of Utah, Salt Lake City, UT, USA), they were diluted in PBS. They were incubated at 4°C overnight and secondary antibodies for 30 min at room temperature. Secondary antibodies were Alexa anti-rabbit and anti-mouse 488, 555 (1:500, Molecular probes). FastRed stainings were carried out using Fast Red TR/Naphtol AS-MX tablets (Sigma), according to manufacturer's instructions. Lastly sections were washed using PBSTx and mounted. All immunohistochemical stainings were done on at least five individuals.
(§3) Images were acquired using an inverted Zeiss AxioImager Z1. Only sections between the caudal end of the olfactory bulb and anterior commissure were counted. The quantification of the average translocation range was done using the AxioVision free hand surface area measurement tool. The area showing anti-fluorescein staining in the left hemisphere was measured against the total this telencephalic hemisphere, based on color thresholds against control images. […]

[2] = system: adult zebrafish brain (telencephalic hemispheres); experiment: Relative fluorescence levels in the telencephalic hemispheres after CVMI (surface plots); settings: CVMI 100 μM, Fast-Red staining of cryosections, compared to control PolyD
Description: as §1, §2
(§4) Stainings were performed as previously described in [36, 43]. Yet after the first washing step a 6 min citrate buffer treatment at 85°C was done. […]
as §3

[3] = system: adult zebrafish brain (telencephalon)
Description: as §1, §2
TUNEL stainings of sections were carried out using the ApoTag Red In Situ apoptosis Detection Kit (Chemicon International). Stainings were performed according to manufacturer’s instructions and positive and negative controls were included.
Images were acquired using an inverted Zeiss AxioImager Z1. Only sections between the caudal end of the olfactory bulb and anterior commissure were counted. The quantification of the average translocation range was done using the AxioVision free hand surface area measurement tool. The area showing anti-fluorescein staining in the left hemisphere was measured against the total this telencephalic hemisphere, based on color thresholds against control images. The statistical evaluation was performed using GraphPad Prism (Version 6.02) for one-way ANOVA followed by a Tukey’s post-hoc test and for Student’s T-Test. Error bars shown are the s.e.m. and asterisks indicate significance according to: *: p0.05, **: p0.01, ***: p0.001. p>0.05 is considered not significant.

[4] = system: adult zebrafish brain (telencephalon); experiment: L-Plastin immunohistochemistry for immune response (leukocytes/microglia) after peptide CVMI; settings: CVMI at 150 μM and 200 μM, n = 4
Description: as §1, §2, §4, §3

[5] = system: adult zebrafish brain (ventricular progenitor cells); settings: CVMI 200 μM, PCNA IHC
Description: as §1, §2, §4, §3

[6] = injection concentration 100 μM, stained area vs total hemisphere

## Antennapedia [Antp]
[1]; [6]
  average area of peptide translocation in one telencephalic hemisphere: did not show any penetration

## Transportan
[1]; [6]
  average area of peptide translocation in one telencephalic hemisphere: 70 ± 4%
[1]; injection concentration 200 μM
  average area of peptide translocation in one telencephalic hemisphere: 58 ± 6%
[2]
  relative fluorescence levels in the telencephalic hemispheres (level of peptide translocated to deep tissues): significantly elevated levels of penetration
[3]; CVMI 200 μM, 1 dpi, per telencephalic hemisphere per section, n = 3
  number of TUNEL-positive (apoptotic) cells: statistically significant and dramatic increase in apoptotic cells
[3]; CVMI 200 μM, 1 dpi, stab-lesioned hemisphere 27 ± 4 TUNEL-positive cells
  increase in number of TUNEL-positive cells compared to a stabbed hemisphere: 3 fold
[3]; CVMI at 150 μM and 200 μM, statistically significant, n = 4
  cell death response (TUNEL-positive cells) compared to PolyD control: increased levels of TUNEL-positive cells
[4]
  immune response (L-Plastin-positive cells) compared to PolyD control: increased numbers of immune cells
[5]
  decrease in proliferating cells compared to control and PolyR injected brains: ~50%
